## Yeast mating assay 1: variants of the scFv Ab-14

Reference: Engelhart et al. 2022, doi:10.1038/s41597-022-01779-4. File: FLAb, binding data.

Target peptide (SARS-CoV-2 spike, HR2 region): PDVDLGDISGINAS

Parent scFv Ab-14: VH joined to VL by a (GGGGS)3 linker. Changes lie in the heavy chain CDRs alone.
VH: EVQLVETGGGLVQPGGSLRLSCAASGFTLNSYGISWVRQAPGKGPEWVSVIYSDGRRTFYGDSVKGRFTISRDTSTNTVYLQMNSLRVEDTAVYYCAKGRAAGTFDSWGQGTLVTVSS
VL: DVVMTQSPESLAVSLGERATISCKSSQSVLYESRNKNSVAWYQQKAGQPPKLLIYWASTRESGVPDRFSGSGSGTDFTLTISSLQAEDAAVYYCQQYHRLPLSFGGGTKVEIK

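The starting antibody came from a phage panning campaign against this peptide. AAYL49 was designed without a model: most single CDR substitutions and a random sample of double and triple ones. The scFvs were displayed on barcoded MATa yeast, the peptide on MATalpha yeast. After mating in shaken culture at 30 °C for 16 h, diploids were selected and their barcode pairs sequenced. Read counts were normalised to the haploid input and turned into Kd by a linear fit to BCL2-family pairs of known affinity, for each replicate. Mating was done three times.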

Variants are written as CDR1, CDR2 and CDR3 of the heavy chain (limits as in the source). Parent: GFTLNSYGIS, VIYSDGRRTFYGDSVK, GRAAGTFDS. Values are log10 of the apparent Kd in nM; lower means stronger binding. The mean shown is taken over the replicates in which the pair was detected. An entry "no signal" has no value in the source: the pair was not observed among the diploids in any replicate. This suggests poor binding but is not conclusive. In this assay the parent's reference entry averaged 0.65; its copy inside this library read 4.11 (one replicate of three).

CDR-H1	CDR-H2	CDR-H3	log10 Kd (nM), mean	seen in
GFTANSYGIS	VIWSDGRRTFYGDWVK	GRAAGTFDS	5.20	2 of 3
GFTLNSYGIS	VIYSDGRRTFFGDSVK	GRAAWTFRS	3.25	3 of 3
GFTLNIYGIS	VIYSDGRCTFYGDDVK	GRAAGTFDS	no signal	0 of 3
GFTLNSYGIS	VIYMDGRRTFWGDLVK	GRAAGTFDS	no signal	0 of 3
GFTLNSYGIS	VIYEDGRRTFYGDSVK	GRAAWTFVS	5.33	1 of 3
GFTLNSYGIS	VIYSDGRRTFEGDSVP	GREAGTFDS	no signal	0 of 3
GFTLNSNGIS	VIYSDGRRTFYGDSVK	GFAAGTFDG	4.67	2 of 3
GFTLNSYGIS	VIWSDGRRTFYGDVVW	GRAAGTFDS	no signal	0 of 3
GFTLNSYGIS	VIFSDGRRTPYGDSVK	GRAAQTFDS	no signal	0 of 3
GFTLNSYGIS	VIYSDGRRYFYGDSVK	GYEAGTFDS	2.33	3 of 3
GFTLNSYGIS	VIYSDGIRMFYGDSVK	GRAAGTFDS	1.68	3 of 3
GFTHNSYGIS	VIYSDKRGTFYGDSVK	GRAAGTFDS	no signal	0 of 3
WFTLNSYGGS	VIYTDGRRTFYGDSVK	GRAAGTFDS	5.59	1 of 3
GFTLASYGIS	VAYSDGRRTFYGDSVK	GPAAGTFDS	no signal	0 of 3
GFTLNSYGIS	VIYSDGRRGFIGDMVK	GRAAGTFDS	no signal	0 of 3
SFTLNSYGIS	VIYSDGRRPFYGDSVK	GRSAGTFDS	2.84	1 of 3
GTTLNSYGII	GIYSDGRRTFYGDSVK	GRAAGTFDS	3.21	1 of 3
GFTLNEYGIS	VIYSDGRRTHYGDSVK	GRFAGTFDS	no signal	0 of 3
GFHLNSYGIS	VIYSDGRRTFYGDSGK	GRAAHTFDS	2.26	2 of 3
GFTLNSYLIS	VIYSDGRRTKYGDSVK	GRWAGTFDS	no signal	0 of 3
GFTLASYGIS	VIYSDGRRTFYGHSVK	GYAAGTFDS	2.18	3 of 3
RFTLNSYGIS	VIYSDGRRTFGGDSVK	GTAAGTFDS	no signal	0 of 3
GFTLNSYGIS	VIYSDGRRTFYGGSVK	GREAGTFDS	0.61	3 of 3
GLTLNSYGIS	IIYSDGRRTFMGDSVK	GRAAGTFDS	no signal	0 of 3
GFTLNSYGIS	VIYSDHRRTFYDDSVK	DRAAGTFDS	4.15	1 of 3
GFTLNSYGWS	VPYSDGRRTFYGASVK	GRAAGTFDS	no signal	0 of 3
GFTLNSYFNS	VIYMDGRRTFYGDSVK	GRAAGTFDS	5.02	1 of 3
GFTLNSYGIS	VIYSDGRRTFYGDSVK	GAANGTFDS	no signal	0 of 3
GFTLNSYGIS	VIYSDGRRTLYGDSVE	GRAAGTFDS	2.23	1 of 3
GYTDNSYGIS	VIYSDGRRTFYGDSKK	GRAAGTFDS	3.91	1 of 3
GFTLNSRGIS	VIYSDGRRTFYGDSVK	GRARGTFDS	5.51	2 of 3
GSGLNSYGIS	VIYSDGRRTFYGDSEK	GRAAGTFDS	3.24	1 of 3
GFTDNSYGIS	VIYSVGRRTFYGDSVK	GRAAGTFSS	no signal	0 of 3
GFTLNSYGIN	VIYSDGRRTFYGDSVK	FRAAGTFDS	no signal	0 of 3
GFTLNSYGIC	VRYSDGSRTFYGDSVK	GRAAGTFDS	4.25	1 of 3
GNTLNSYYIS	VIYSDGRRTFYVDSVK	GRAAGTFDS	4.68	3 of 3
GFTLNSEGIS	VIYSDGRRTFYGDSVF	GRAAGTFDS	no signal	0 of 3
GFMLNSYGQS	VIYSDGRRTDYGDSVK	GRAAGTFDS	3.30	3 of 3
GFTLNSYGIS	VWYSGSRRTFYGDSVK	GRAAGTFDS	3.20	1 of 3
GFTPNSYGIS	VIYSDGKRTFYGDSVK	GRFAGTFDS	1.66	3 of 3
GFTLNSYGIS	VIYSDGRRTFYGDSVK	GQAAGTDDC	4.80	2 of 3
GFMLRSYGIS	VIYSDGRKTFYGDSVK	GRAAGTFDS	3.32	1 of 3
GFTLYEYGIS	VIYSGGRRTFYGDSVK	GRAAGTFDS	no signal	0 of 3
GFTLDSYGIS	VIYSDGRRTFYGDSVK	GKAAYTFDS	no signal	0 of 3
GFTLQSYGIS	VIYSDGRRTFEGDSVK	GRAAGTQDS	2.92	1 of 3
GFTLSSYGIS	VVYSDGRRTFYGDSVK	GRAATTFDS	no signal	0 of 3
HFTLNSYGIS	VITSDGRRTSYGDSVK	GRAAGTFDS	3.37	3 of 3
GHTLNSYGPS	VIYSDGRRSFYGDSVK	GRAAGTFDS	4.21	1 of 3
GFTLNSYGIS	VIYSDGRRCFYGDEVK	GRTAGTFDS	1.15	3 of 3
GFPLNSYGIS	VNYSDGRRIFYGDSVK	GRAAGTFDS	4.23	2 of 3
GFTLNSYGIS	VIYSDGRRTFIGTSTK	GRAAGTFDS	4.34	2 of 3
GFTLNSYGIS	MIYSDGRRTFEGDHVK	GRAAGTFDS	3.56	1 of 3
GFTLNSYGIS	VSYSDGRRVFYGDSVK	GRAAGTWDS	3.32	2 of 3
GFTLNSYGIS	VIYSDGRITFYGDSVM	GRAAGTFDS	no signal	0 of 3
GFTLNDYGIS	VIYSDGRRTFYGDSVK	GRAAGTQDS	0.69	3 of 3
GFTLNSYGIS	VIYSDGRRTFYGDSEK	GRAWGTFFS	5.23	1 of 3
GPTLNSYGIS	VIYSDGRRTFYGDSVK	GRAAGAFDS	no signal	0 of 3
GFTLNSYGIS	VIYSDDRITFYGDSVR	GRAAGTFDS	no signal	0 of 3
GFTLNSYGIS	VIYSDGRRINYGDSVK	GREAGTFDS	2.73	3 of 3
GFTLNSYGIS	AIYSDGRRTFYSDSVK	GIAAGTFDS	3.63	1 of 3
GFTLNSYGIS	VIYWDGNRTFYGDSVK	GRAASTFDS	3.69	1 of 3
GFTLNSYGIS	VIYSDGRRTIYGDSMK	FRAAGTFDS	5.89	1 of 3
LFTLNSYGIS	VIYPDGRRTFQGDSVK	GRAAGTFDS	no signal	0 of 3
GFTLNSYGIS	SIYSDGRRTFYGDSVK	GRAAGTGDS	no signal	0 of 3
GFTLNSYGIS	VIYSDGTRTFYGDSVK	GCHAGTFDS	1.22	3 of 3
GFTLNSYGIS	VAYSDGRRTFYGDSVE	GRAAGTRDS	no signal	0 of 3
GFTVNSYGIS	VIYSDTRRTFYGDSVK	GRAAGTFDS	no signal	0 of 3
GFTLNSYGIE	VIYSDGRRTFDGDSVK	GRAACTFDS	no signal	0 of 3
GFTLNSYGIS	VIYSHGRRTFYDDSVK	GRAAGTFDS	no signal	0 of 3
GFTLNSYLIS	VIYKDGRRTFYLDSVK	GRAAGTFDS	3.99	1 of 3
GFTLNSYDIS	NIYSDGRRPFYGDSVK	GRAAGTFDS	3.65	1 of 3

Excerpt, the first 10 entries:

| CDR-H1 | CDR-H2 | CDR-H3 | log10 Kd (nM), mean | seen in |
|---|---|---|---|---|
| GFTANSYGIS | VIWSDGRRTFYGDWVK | GRAAGTFDS | 5.20 | 2 of 3 |
| GFTLNSYGIS | VIYSDGRRTFFGDSVK | GRAAWTFRS | 3.25 | 3 of 3 |
| GFTLNIYGIS | VIYSDGRCTFYGDDVK | GRAAGTFDS | no signal | 0 of 3 |
| GFTLNSYGIS | VIYMDGRRTFWGDLVK | GRAAGTFDS | no signal | 0 of 3 |
| GFTLNSYGIS | VIYEDGRRTFYGDSVK | GRAAWTFVS | 5.33 | 1 of 3 |
| GFTLNSYGIS | VIYSDGRRTFEGDSVP | GREAGTFDS | no signal | 0 of 3 |
| GFTLNSNGIS | VIYSDGRRTFYGDSVK | GFAAGTFDG | 4.67 | 2 of 3 |
| GFTLNSYGIS | VIWSDGRRTFYGDVVW | GRAAGTFDS | no signal | 0 of 3 |
| GFTLNSYGIS | VIFSDGRRTPYGDSVK | GRAAQTFDS | no signal | 0 of 3 |
| GFTLNSYGIS | VIYSDGRRYFYGDSVK | GYEAGTFDS | 2.33 | 3 of 3 |

Empty control strains, which show no peptide, gave a signal in 15% of pairings with library AAYL49; the median was 4.06 and 95% of these signals were weaker than 2.83. No background was subtracted.